# Values quoted from earlier work as cited in paper PMC12323307, “Oral delivery of GLP-1 peptide using recombinant Lactobacillus gasseri for the treatment of type 2 diabetes mellitus” (Microbiology Spectrum, 2025).
# From the text: In prior research, Cheng et al. developed an innovative approach to engineer a precursor peptide for liraglutide, specifically a mutant form of GLP-1 (GLP-1 (7–37)^R34) ([8]). Human serum albumin (HSA), an endogenous molecular transporter, is widely recognized for its favorable properties, including excellent biodegradability, non-toxicity, and non-immunogenicity. With a half-life of approximately 19 days, HSA is frequently utilized as ...
substance,measurement,value
HSA: endogenous molecular transporter used as drug carrier,half-life,approximately 19 days
